Test results published in patent publication US9790407B2, “Aqueous detergent soluble coating and adhesive and methods of temporary bonding for manufacturing” (priority 2013, dated 2017).

What was measured:
[1] = Detergency solubility of carboxylic acid coatings in KOH based system (Example 1); assay type: physicochemical; conditions: acidic coating, materials dissolved in DMAC
[2] = Water solubility of carboxylic acid coatings (Example 1); conditions: acidic coating; materials dissolved in n,n-dimethylacetamide (DMAC)

O=C(O)C1CCC(C(=O)O)CC1 (centres unmarked) [1,4-CHDA HP]
Detergency (KOH based system) [1]: Yes | Water solubility (observed) [2]: Limited/no
